Here are results for one molecule from US6270979A (priority 1998, dated 2001).

Sequences of proteins named here, by UniProt entry; tags and fusion partners are left off.
UniProt P35372, whole entry, looked up: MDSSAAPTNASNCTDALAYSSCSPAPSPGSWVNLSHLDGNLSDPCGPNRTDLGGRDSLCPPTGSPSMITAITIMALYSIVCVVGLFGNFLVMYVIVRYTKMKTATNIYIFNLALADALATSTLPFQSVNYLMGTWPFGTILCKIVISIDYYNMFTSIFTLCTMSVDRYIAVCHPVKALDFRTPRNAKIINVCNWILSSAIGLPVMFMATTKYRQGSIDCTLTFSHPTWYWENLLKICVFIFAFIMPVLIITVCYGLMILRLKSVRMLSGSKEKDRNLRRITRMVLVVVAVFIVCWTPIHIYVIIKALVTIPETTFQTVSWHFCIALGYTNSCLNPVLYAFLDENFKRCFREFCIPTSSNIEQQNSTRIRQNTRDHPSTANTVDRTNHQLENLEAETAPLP

For this assay, the target named is opioid μ receptor (Homo sapiens, UniProt P35372).

Turning to `CO[C@]12CC[C@@]3(C[C@@H]1C(C)(C)O)[C@H]1Cc4ccc(O)c5c4[C@@]3(CCN1CC1CC1)[C@H]2O5`, for the setting “morphine pretreated cells”, the “classification of opioid drug (agonist / neutral / negative antagonist)” value is recorded as “negative antagonists”. Also, the “effect on cAMP levels / constitutive activity in morphine pretreated cells” value (morphine pretreated, drug-free dependent cells) is “increasing cAMP levels in drug-free dependent cells”.
